The results in this text go back to patent US20160009824A1.

For this assay, the target named is Human CD47 (coated on ELISA plates) (human) (UniProt Q08722). The assay is described as follows: ELISA on plate-coated human CD47, detection with HRP goat anti-human IgG Fcγ, A450. In general terms: In an ELISA, binding on a coated surface is turned into a signal by an enzyme label.

As to “anti-EGFR/anti-CD47 TetBiAb (bispecific antibody)”, the concentration giving a half-maximal response (EC50 (read off the curve)) – broadly, the concentration giving half of the maximal effect – was 8 nM.
